# Experimental data published in ChEMBL document CHEMBL1201862, “PubChem BioAssay data set” (2004).
# Some of the results follow. No stated cut-off is given here; in the data, active = GI50 up to about 1.1 µM and inactive = higher. These assays gave more results; the selection is not random.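 Tested at 5 concentrations; 48 h exposure; 96-well plates; endpoints linearly interpolated, else capped at highest concentration. GI50 marks 50% less growth.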 For part of these data: Entries with a potency or affinity are not part of this list.
# Tests used:
# Assay in all cases: NCI tumour cell line growth inhibition, 48 h
# A498 = system: A498
# A549 = system: A549
# ACHN = system: ACHN
# CAKI-1 = system: CAKI-1
# CCRF-CEM = system: CCRF-CEM
# COLO 205 = system: COLO 205
# 786-0 = system: 786-0
# BT-549 = system: BT-549
# DLD-1 = system: DLD-1
# DMS-114 = system: DMS-114
Structure (SMILES),GI50 (A498),GI50 (A549),GI50 (ACHN),GI50 (CAKI-1),GI50 (CCRF-CEM),GI50 (COLO 205),GI50 (786-0),GI50 (BT-549),GI50 (DLD-1),GI50 (DMS-114)
C[S+](N)(=O)CCC(N)P(=O)(O)O (stereo not given),inactive: > 100 µM,inactive: > 100 µM,inactive: > 100 µM,inactive: > 100 µM,inactive: > 100 µM,inactive: > 100 µM,–,–,–,–
ClCCSc1c2ccccc2nc2ccccc12,inactive: 16.9 µM,inactive: 23.6 µM,inactive: 7.35 µM,inactive: 2.64 µM,inactive: 2.77 µM,inactive: 4.73 µM,inactive: 2.59 µM,inactive: 18.8 µM,–,–
Cc1[nH]c2c(C)c([N+](=O)[O-])c(C)c([N+](=O)[O-])c2c1[N+](=O)[O-],inactive: 4.78 µM,inactive: 5.68 µM,inactive: 7.4 µM,–,inactive: 4.41 µM,–,inactive: 11.4 µM,–,inactive: 11.8 µM,inactive: 3.26 µM
O=[As](O)(O)O,inactive: > 100 µM,inactive: > 100 µM,inactive: > 100 µM,inactive: > 100 µM,inactive: > 100 µM,inactive: > 100 µM,inactive: > 100 µM,inactive: 82.2 µM,–,–
Cc1ccc2ccc3ccc4ccccc4c3c2c1.O=C1c2cc([N+](=O)[O-])ccc2-c2c1cc([N+](=O)[O-])cc2[N+](=O)[O-],inactive: 13.6 µM,inactive: 17.9 µM,inactive: 1.76 µM,inactive: 2.55 µM,active: 1 µM,inactive: 9.51 µM,inactive: 1.24 µM,inactive: 1.21 µM,–,–
COc1ccc(C[N+](C)(CCCl)CCCl)c([N+](=O)[O-])c1,inactive: > 100 µM,inactive: > 100 µM,inactive: 58.7 µM,inactive: 63.8 µM,inactive: > 100 µM,inactive: 89.1 µM,inactive: > 100 µM,inactive: > 100 µM,–,–
COP(C)(=O)C(N)Cc1ccccc1 (stereo not given),–,inactive: > 100 µM,inactive: > 100 µM,inactive: > 100 µM,inactive: > 100 µM,inactive: > 100 µM,inactive: > 100 µM,inactive: > 100 µM,–,–
O[C@H]1[C@@H](O)CC2CCN3Cc4cc5c(cc4[C@H]1C23)OCO5 (stereo not given in full),–,inactive: > 100 µM,inactive: > 100 µM,–,inactive: > 100 µM,inactive: > 100 µM,inactive: > 100 µM,–,inactive: > 100 µM,inactive: > 100 µM
O=[N+]([O-])C1([N+](=O)[O-])COCOC1,inactive: > 100 µM,inactive: > 100 µM,inactive: > 100 µM,inactive: > 100 µM,inactive: 94 µM,inactive: 47.3 µM,inactive: > 100 µM,inactive: 27.4 µM,–,–
O=C1CCN2CCCC12 (stereo not given),inactive: > 100 µM,inactive: > 100 µM,inactive: > 100 µM,inactive: > 100 µM,inactive: > 100 µM,inactive: > 100 µM,inactive: > 100 µM,inactive: > 100 µM,–,–
COc1ccc2nccc(C=O)c2c1,active: 1 µM,inactive: > 100 µM,inactive: 5.43 µM,inactive: 37.2 µM,active: 0.316 µM,inactive: 15 µM,inactive: 16.5 µM,inactive: 11.7 µM,–,–
Cc1ccc([N+](=O)[O-])c(C[N+](C)(CCCl)CCCl)c1,inactive: 21.5 µM,inactive: 15.4 µM,inactive: 6.1 µM,inactive: 5.71 µM,inactive: 20.9 µM,inactive: 12.5 µM,inactive: 16.9 µM,inactive: 18.1 µM,–,–
NNc1nc2nonc2nc1NN,inactive: > 100 µM,inactive: 42.8 µM,inactive: 43.5 µM,inactive: 74.6 µM,inactive: 42.7 µM,inactive: 23.4 µM,inactive: 23.9 µM,–,–,–
CC1=CC2OC3CC4OC(=O)/C=C\C=C\C(C(C)O)OCCC(C)C(O)C(=O)OCC2(CC1O)C4(C)C31CO1 (stereo not given),–,–,–,–,active: < 0.005 µM,–,–,–,–,–
O=[N+]([O-])c1ncn(F)c1[N+](=O)[O-],inactive: > 100 µM,inactive: > 100 µM,inactive: 94.6 µM,inactive: 41.2 µM,inactive: 60.8 µM,inactive: > 100 µM,inactive: > 100 µM,–,–,–
O=[N+]([O-])C1([N+](=O)[O-])CCCc2nonc21,inactive: 27.7 µM,inactive: 37 µM,inactive: > 100 µM,–,inactive: 26.6 µM,inactive: 22.6 µM,inactive: 45.5 µM,–,–,–
Cc1ccc2ccc(C)c(C)c2c1.O=[N+]([O-])c1cc([N+](=O)[O-])c(O)c([N+](=O)[O-])c1O,inactive: > 100 µM,inactive: > 100 µM,inactive: > 100 µM,inactive: 58.1 µM,–,inactive: > 100 µM,inactive: > 100 µM,inactive: > 100 µM,–,–
O[C@@H]1CCN2CCC[C@H]12,inactive: > 100 µM,inactive: > 100 µM,inactive: > 100 µM,inactive: > 100 µM,inactive: > 100 µM,inactive: > 100 µM,inactive: > 100 µM,inactive: > 100 µM,–,–
CCCC[S+](N)(=O)CCC(N)P(=O)(O)O (stereo not given),–,inactive: > 100 µM,inactive: > 100 µM,inactive: > 100 µM,inactive: 10 µM,inactive: > 100 µM,–,–,–,–
CCCCCCCCCCCCCNCC(C)O (stereo not given),inactive: 15.1 µM,inactive: 14.9 µM,inactive: 14.2 µM,inactive: 10.2 µM,inactive: 4.89 µM,inactive: 1.25 µM,inactive: 19.4 µM,inactive: 13.1 µM,–,–
COc1ccc([N+](=O)[O-])c(C[N+](C)(CCCl)CCCl)c1,inactive: > 100 µM,inactive: > 100 µM,inactive: 52 µM,inactive: 33 µM,inactive: 84.1 µM,inactive: > 100 µM,inactive: > 100 µM,inactive: > 100 µM,–,–
Nc1nc2c(ncn2CCN(CCCl)CCCl)c(=O)[nH]1,inactive: > 100 µM,inactive: > 100 µM,inactive: > 100 µM,–,inactive: > 100 µM,inactive: > 100 µM,inactive: > 100 µM,–,inactive: > 100 µM,inactive: > 100 µM
O=C1Nc2ccc([N+](=O)[O-])cc2/C1=N/Nc1ccc([N+](=O)[O-])cc1[N+](=O)[O-],inactive: 14 µM,inactive: 18.7 µM,inactive: 28 µM,inactive: 27.2 µM,inactive: 25.5 µM,inactive: 23.2 µM,inactive: 17.7 µM,–,inactive: 39.2 µM,inactive: 29 µM
